By inhibition is commonly meant the relative decrease from the control value, in per cent.

Sequences of proteins named here, by UniProt entry; tags and fusion partners are left off. Residues count along the entry.
UniProt Q9GZR1, 628-1112 limits assumed: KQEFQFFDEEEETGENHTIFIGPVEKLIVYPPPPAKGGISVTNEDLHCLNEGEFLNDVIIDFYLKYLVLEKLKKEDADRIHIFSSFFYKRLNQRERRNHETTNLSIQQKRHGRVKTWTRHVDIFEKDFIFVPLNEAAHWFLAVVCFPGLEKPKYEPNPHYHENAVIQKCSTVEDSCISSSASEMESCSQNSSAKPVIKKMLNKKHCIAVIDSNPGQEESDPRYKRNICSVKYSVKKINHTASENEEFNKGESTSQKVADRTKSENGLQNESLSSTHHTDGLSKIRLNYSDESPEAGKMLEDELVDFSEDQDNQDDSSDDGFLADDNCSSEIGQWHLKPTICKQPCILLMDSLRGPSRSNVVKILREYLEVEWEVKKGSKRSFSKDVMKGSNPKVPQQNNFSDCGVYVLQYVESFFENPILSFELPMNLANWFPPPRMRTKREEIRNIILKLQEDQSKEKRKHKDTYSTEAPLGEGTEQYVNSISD

The structures appear in SMILES notation. The entries are a selection whose mix differs from that of the whole data set. Some results for these compounds are left out of this collection, so the calls shown say nothing about other tests. The source made the active and inactive calls.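 The calls were made as follows: active = inhibition above about 50% at the single tested dose (limit read from the data); inactive = the rest.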

The test concerns the target Sentrin-specific protease 6 (Homo sapiens) (UniProt Q9GZR1). Description: inhibition of human SENP6 catalytic domain – biochemical, luminescence, uHTS, primary screen (AID 2599).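 Also: plate controls were DMSO wells with enzyme for no effect and DMSO wells lacking enzyme for full effect.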 Conditions: Recombinant SENP6 catalytic domain, aminoluciferin luminescence; at 10 µM; active compounds read high.
Turning to `C=CCN1CCN(CCOC(=O)C(O)(c2ccccc2)c2ccccc2)CC1`, the inhibition is inactive: 5.86%.
Take `O=C(NCC1(N2CCCCC2)CCCCC1)c1cc(F)c(F)cc1Cl`: the inhibition is inactive: -8.69%.
In the case of `COc1ccc(C(=O)NCC2(N(C)C)CCCCC2)cc1` it was inactive: -18.9%.
Next, `CCN1CCCC(OC(=O)C2(O)c3ccccc3C=Cc3ccccc32)C1` (centres undefined): inactive: 3.38%.
Next, `Cc1cc(C(=O)NCC2(N3CCCCC3)CCCCC2)ccc1[N+](=O)[O-]`: inactive: -17.6%; `O=C(NCC1(N2CCCCC2)CCCCC1)c1cccc(Br)c1`: inactive: -11.6%; `Cc1ccccc1C(=O)NCC1(N2CCCCC2)CCCCC1`: inactive: 16.6%.
In the case of `CN(C)c1ccc(C(=O)NCC2(N(C)C)CCCCC2)cc1`, the inhibition was inactive: -27.6%.
Regarding `CN(C)C1CCCC1OC(=O)C(O)(c1ccccc1)c1ccccc1` (centres undefined), the inhibition was inactive: -1.35%.
In the case of `CCN(CC)CC(C)C(C)OC(=O)C(O)(c1ccccc1)c1ccccc1` (centres undefined) it was inactive: 10.5%; in that of `COc1cc(SC)ccc1C(=O)NCC1(N(C)C)CCCCC1`, inactive: 11%; in that of `CC(C)N1C(=O)CC2(CCN(CCOC(=O)C(O)(c3ccccc3)c3ccccc3)CC2)C1=O`, inactive: -4.82%.
Next, `Cc1ccc(C(=O)NCC2(N3CCCCC3)CCCCC2)cc1`: inactive: 2.27%.
Next, `O=C(NCC1(N2CCCCC2)CCCCC1)c1cc([N+](=O)[O-])ccc1Cl`: inactive: 3.41%; `CN1[C@@H]2CC[C@H]1CC(OC(=O)C(O)(c1ccccc1)c1ccccc1)C2` (some centres undefined): inactive: 3.6%.
Regarding `COc1ccc(Br)c(C(=O)NCC2(N3CCCCC3)CCCCC2)c1`, the inhibition is inactive: -10.8%.
For `CC(C)Oc1ccc(C(=O)NCC2(N(C)C)CCCCC2)cc1`, the inhibition is inactive: -12.4%.
In the case of `CN(C)c1cccc(C(=O)NCC2(N(C)C)CCCCC2)c1` it was inactive: 1.15%; in that of `O=C(OC1CN2CCC1CC2)C(CO)(c1ccccc1)c1ccccc1` (centres undefined), inactive: -40.4%.
Next, `COc1cccc(C(=O)NCC2(N3CCCCC3)CCCCC2)c1`: inactive: 2.49%; `COc1ccc(Cl)cc1C(=O)NCC1(N(C)C)CCCCC1`: inactive: 13.2%; `O=C(NCC1(N2CCCCC2)CCCCC1)c1cccc(Cl)c1`: inactive: 2.27%.
In the case of `CN(C)C1(CNC(=O)c2ccc(Br)cc2)CCCCC1` it was inactive: 26%; in that of `COc1cc(C(=O)NCC2(N(C)C)CCCCC2)c([N+](=O)[O-])cc1OC`, inactive: 7.09%.
